Data: PubChem BioAssay AID1298 (SRMLSC, 2008)
The entries are a selection whose mix differs from that of the whole data set. The source made the active and inactive calls.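 The calls were made as follows: active = RAM network inhibition above 8.4% in each of two replicates, 3 SD over the compound average; inconclusive = above 8.4% inhibition in only one replicate; inactive = 8.4% inhibition or less in each replicate.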

Assay: RAM signaling pathway blockade in yeast – S. cerevisiae, Pdr1DBD-CYC8 efflux-inhibited sensitized strain, primary screen (AID 1298);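 also: 0% = DMSO untreated cells without growth and 100% = 10 µM 1-NA-PP1 full growth; higher means more yeast growth rescued from 5-FOA killing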
Details: S. cerevisiae cbk1-as DSE1-URA3 strain, 5-FOA growth OD615, 2 d; at 50 µM; stronger effect = higher value
For COC(=O)c1cc2c(s1)N=C(c1ccccc1)N(C)P2(=O)N1CCOCC1 (stereo unspecified), the RAM network inhibition was inactive: 3.37%.
